Data taken from IntAct's records for PubMed 21278383.

B1: Actin-like protein 7A (Homo sapiens), Q9Y615 (parent)
chain: MWAPPAAIMGDGPTKKVGNQAPLQTQALQTASLRDGPAKRAVWVRHTSSEPQEPTESKAAKERPKQEVTKAVVVDLGTGYCKCGFAGLPRPTHKISTTVGKPYMETAKTGDNRKETFVGQELNNTNVHLKLVNPLRHGIIVDWDTVQDIWEYLFRQEMKIAPEEHAVLVSDPPLSPHTNREKYAEMLFEAFNTPAMHIAYQSRLSMYSYGRTSGLVVEVGHGVSYVVPIYEGYPLPSITGRLDYAGSDLTAYLLGLLNSAGNEFTQDQMGIVEDIKKKCCFVALDPIEEKKVPLSEHTIRYVLPDGKEIQLCQERFLCSEMFFKPSLIKSMQLGLHTQTVSCLNKCDIALKRDLMGNILLCGGSTMLSGFPNRLQKELSSMCPNDTPQVNVLPERDSAVWTGGSILASLQGFQPLWVHRFEYEEHGPFFLYRRCF
partner: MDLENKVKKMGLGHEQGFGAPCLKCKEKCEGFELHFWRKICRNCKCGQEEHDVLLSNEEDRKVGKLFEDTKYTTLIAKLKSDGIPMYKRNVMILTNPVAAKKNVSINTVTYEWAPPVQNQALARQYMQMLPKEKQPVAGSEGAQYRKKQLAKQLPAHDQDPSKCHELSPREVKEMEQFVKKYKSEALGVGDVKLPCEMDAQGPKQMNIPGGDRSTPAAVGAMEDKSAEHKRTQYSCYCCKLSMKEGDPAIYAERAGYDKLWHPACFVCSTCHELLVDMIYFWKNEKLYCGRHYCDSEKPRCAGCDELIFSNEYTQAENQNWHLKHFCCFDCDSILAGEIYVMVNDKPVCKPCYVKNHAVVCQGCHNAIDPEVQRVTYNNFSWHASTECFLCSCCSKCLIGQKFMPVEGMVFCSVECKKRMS
B2: Testin (Homo sapiens), Q9UGI8 (parent)
chain: B1 partner
partner: B1 chain

Variants of: B1
Conditions: with tes_human TES

Variant	effect of a mutation on the interaction
MWAPPAAIMGDGPTKKVGNQAPLQTQALQTASLRDGPAKRYVWVRHTSSEPQEPTESKAAKERPKQEVTKAVVVDLGTGYCKCGFAGLPRPTHKISTTVGKPYMETAKTGDNRKETFVGQELNNTNVHLKLVNPLRHGIIVDWDTVQDIWEYLFRQEMKIAPEEHAVLVSDPPLSPHTNREKYAEMLFEAFNTPAMHIAYQSRLSMYSYGRTSGLVVEVGHGVSYVVPIYEGYPLPSITGRLDYAGSDLTAYLLGLLNSAGNEFTQDQMGIVEDIKKKCCFVALDPIEEKKVPLSEHTIRYVLPDGKEIQLCQERFLCSEMFFKPSLIKSMQLGLHTQTVSCLNKCDIALKRDLMGNILLCGGSTMLSGFPNRLQKELSSMCPNDTPQVNVLPERDSAVWTGGSILASLQGFQPLWVHRFEYEEHGPFFLYRRCF [A41Y]	disrupting interaction strength
MWAPPAAIMGDGPTKKVGNQAPLQTQALQTYSLRDGPAKRAVWVRHTSSEPQEPTESKAAKERPKQEVTKAVVVDLGTGYCKCGFAGLPRPTHKISTTVGKPYMETAKTGDNRKETFVGQELNNTNVHLKLVNPLRHGIIVDWDTVQDIWEYLFRQEMKIAPEEHAVLVSDPPLSPHTNREKYAEMLFEAFNTPAMHIAYQSRLSMYSYGRTSGLVVEVGHGVSYVVPIYEGYPLPSITGRLDYAGSDLTAYLLGLLNSAGNEFTQDQMGIVEDIKKKCCFVALDPIEEKKVPLSEHTIRYVLPDGKEIQLCQERFLCSEMFFKPSLIKSMQLGLHTQTVSCLNKCDIALKRDLMGNILLCGGSTMLSGFPNRLQKELSSMCPNDTPQVNVLPERDSAVWTGGSILASLQGFQPLWVHRFEYEEHGPFFLYRRCF [A31Y]	disrupting interaction strength

Variants of: B2
Conditions: with acl7a_human ACTL7A

Variant	effect of a mutation on the interaction
MDLENKVKKMGLGHEQGFGAPCLKCKEKCEGFELHFWRKICRNCKCGQEEHDVLLSNEEDRKVGKLFEDTKYTTLIAKLKSDGIPMYKRNVMILTNPVAAKKNVSINTVTYEWAPPVQNQALARQYMQMLPKEKQPVAGSEGAQYRKKQLAKQLPAHDQDPSKCHELSPREVKEMEQFVKKYKSEALGVGDVKLPCEMDAQGPKQMNIPGGDRSTPAAVGAMEDKSAEHKRTQYSCYCCKLSMKEGDPAIYAERAGYDKLWHPACFVCSTCHELLVDMIYFWKNEKLYCGRHYCDSEKPRCAGCDELIFSNEYTQAENQNWHLKHFCAFDCDSILAGEIYVMVNDKPVCKPCYVKNHAVVCQGCHNAIDPEVQRVTYNNFSWHASTECFLCSCCSKCLIGQKFMPVEGMVFCSVECKKRMS [C328A]	disrupting interaction strength
